Assay: Beta glucan gel mediated oral delivery of nutraceuticals (absorption, pharmacokinetics)
Description: Beta-glucan compositions can be used to delivery other nutrients or therapeutic molecule via oral delivery.

Structure (SMILES): O=S(=O)([O-])[O-].[Fe+2] [iron sulfate]
- regular absorption rate (iron sulfate without beta glucan): ~1%
- absorption enhancement by Beta glucan (with Beta glucan, given orally): 60 folds

Source: patent US20230024537A1, “Oral Delivery Compositions for Obesity Management” (BOARD OF REGENTS, THE UNIVERSITY OF TEXAS SYSTEM, priority 2021, published 2023)
